Measured values published in PubChem BioAssay AID1022 (Emory University Molecular Libraries Screening Center, 2008).
The list shows a part of the results, in another mix than the full data. Some tests of the compounds listed are not included; inactive here does not mean inactive elsewhere. The source made the active and inactive calls.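 Rule for the calls: active = compounds that cut the protein-peptide binding signal by more than 50% relative to plate controls in a single-dose test; inactive = the rest.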

By UniProt entry, the sequences of proteins in these tests, tags left out.
UniProt Q07820, whole entry: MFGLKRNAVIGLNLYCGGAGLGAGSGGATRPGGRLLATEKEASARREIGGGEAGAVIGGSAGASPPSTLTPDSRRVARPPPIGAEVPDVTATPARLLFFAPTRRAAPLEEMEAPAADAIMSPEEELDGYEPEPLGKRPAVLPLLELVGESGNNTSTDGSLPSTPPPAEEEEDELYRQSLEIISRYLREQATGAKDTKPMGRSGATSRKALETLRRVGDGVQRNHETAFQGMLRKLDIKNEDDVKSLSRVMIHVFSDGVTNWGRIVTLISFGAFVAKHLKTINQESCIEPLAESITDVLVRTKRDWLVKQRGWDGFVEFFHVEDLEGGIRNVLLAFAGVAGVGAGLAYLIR

molecular target: Induced myeloid leukemia cell differentiation protein Mcl-1 (Homo sapiens) (UniProt Q07820); experiment: disruptors of Mcl-1 and Noxa BH3 peptide – biochemical, TR-FRET, 1536-well, primary screen (AID 1022); conditions: TR-FRET Mcl-1/Noxa peptide binding, 2 h; at 21.7 µM; stronger effect = higher value;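 note: His-tagged Mcl-1 with rhodamine Noxa BH3 peptide and terbium anti-His antibody; 0% = Mcl-1 plus Noxa peptide wells and 100% = peptide-only wells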

SMILES | inhibition
COc1cccc(C(=O)NCC2(N3CCCCC3)CCCCC2)c1 | inactive: -0.5%
O=C(OC1CN2CCC1CC2)C(CO)(c1ccccc1)c1ccccc1 (stereo unspecified) | inactive: 1.3%
COc1ccc(Br)c(C(=O)NCC2(N3CCCCC3)CCCCC2)c1 | inactive: -9.54%
CN(C)c1cccc(C(=O)NCC2(N(C)C)CCCCC2)c1 | inactive: 3.59%
O=C(NCC1(N2CCCCC2)CCCCC1)c1cc([N+](=O)[O-])ccc1Cl | inactive: -9.14%
CC(C)N1C(=O)CC2(CCN(CCOC(=O)C(O)(c3ccccc3)c3ccccc3)CC2)C1=O | inactive: -10.3%
CCN(CC)CC(C)C(C)OC(=O)C(O)(c1ccccc1)c1ccccc1 (stereo unspecified) | inactive: -4.45%
CN(C)C1CCCC1OC(=O)C(O)(c1ccccc1)c1ccccc1 (stereo unspecified) | inactive: 6.85%
Cc1ccccc1C(=O)NCC1(N2CCCCC2)CCCCC1 | inactive: -33.2%
C=CCN1CCN(CCOC(=O)C(O)(c2ccccc2)c2ccccc2)CC1 | inactive: 30.5%
CCN1CCCC(OC(=O)C2(O)c3ccccc3C=Cc3ccccc32)C1 (stereo unspecified) | inactive: 3.94%
